# Results published in patent US9376469B2, “Proteolytically resistant hydrogen bond surrogate helices” (New York University, priority 2011, dated 2016).
# Legend:
# [1] = tested on: trypsin; experiment: Trypsin digestion assay; type: in vitro ADME; conditions: 1 ng/μL trypsin, 500 μM peptide, PBS, 4° C.
# [2] = tested on: serum proteases; experiment: Serum stability assay; type: in vitro ADME; conditions: 25% human serum in RPMI, 37° C., after 24 hours, LCMS
compound,measurement,setting,value
"CC(C)C[C@H](NC(=O)[C@H](CC(C)C)NC(=O)[C@H](CCCCN)NC(=O)[C@H](Cc1c[nH]c2ccccc12)NC(=O)[C@H](CC(C)C)NC(=O)[C@H](CC(=O)O)NC(=O)[C@H](CO)NC(=O)[C@H](Cc1ccccc1)NC(=O)CN1CC=CCCC(=O)N[C@@H](CCC(N)=O)C(=O)N[C@@H](CCC(=O)O)C1=O)C(=O)N[C@@H](CO)C(N)=O [Peptide 2, XQEG*FSDLWKLLS-NH2 (SEQ ID NO: 6)]",Time to complete degradation by trypsin,[1],≤ 1 h
same,"Stability in human serum, in words",[2],A majority of peptide 2 was degraded
